From patent US20240254119A1 (THIRD HARMONIC BIO, INC., priority 2022, published 2024)

The chains behind the UniProt entries cited, without tags or fusion partners. Residues count along the entry.
UniProt P16234, 24-1089 limits assumed: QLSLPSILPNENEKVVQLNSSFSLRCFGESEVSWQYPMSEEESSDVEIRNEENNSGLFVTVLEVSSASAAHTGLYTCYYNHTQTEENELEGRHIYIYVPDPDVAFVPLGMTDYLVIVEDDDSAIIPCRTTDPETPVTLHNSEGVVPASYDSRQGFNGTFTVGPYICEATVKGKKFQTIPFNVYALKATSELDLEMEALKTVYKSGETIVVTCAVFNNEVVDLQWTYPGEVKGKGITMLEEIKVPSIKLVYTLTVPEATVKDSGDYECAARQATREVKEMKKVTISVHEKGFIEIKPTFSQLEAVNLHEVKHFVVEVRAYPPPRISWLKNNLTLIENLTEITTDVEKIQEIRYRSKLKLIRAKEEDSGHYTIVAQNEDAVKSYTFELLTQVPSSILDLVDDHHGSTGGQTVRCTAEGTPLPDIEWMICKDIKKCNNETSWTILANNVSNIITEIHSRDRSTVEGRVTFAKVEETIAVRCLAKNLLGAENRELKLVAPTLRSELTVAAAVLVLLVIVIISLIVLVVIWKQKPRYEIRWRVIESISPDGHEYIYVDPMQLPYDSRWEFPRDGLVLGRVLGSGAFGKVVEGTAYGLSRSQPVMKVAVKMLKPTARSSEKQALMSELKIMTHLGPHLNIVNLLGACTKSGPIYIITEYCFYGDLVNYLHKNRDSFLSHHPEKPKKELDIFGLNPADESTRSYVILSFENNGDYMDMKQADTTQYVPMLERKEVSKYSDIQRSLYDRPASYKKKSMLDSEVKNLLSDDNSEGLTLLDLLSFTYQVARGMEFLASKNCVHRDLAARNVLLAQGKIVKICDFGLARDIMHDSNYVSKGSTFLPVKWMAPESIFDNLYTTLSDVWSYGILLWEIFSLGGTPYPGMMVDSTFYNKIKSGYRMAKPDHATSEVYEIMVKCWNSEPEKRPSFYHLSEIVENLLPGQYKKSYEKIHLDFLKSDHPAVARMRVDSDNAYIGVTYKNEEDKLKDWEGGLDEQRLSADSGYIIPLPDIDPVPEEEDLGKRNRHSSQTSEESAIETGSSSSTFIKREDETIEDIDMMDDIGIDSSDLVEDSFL
UniProt P07333, 20-972 limits assumed: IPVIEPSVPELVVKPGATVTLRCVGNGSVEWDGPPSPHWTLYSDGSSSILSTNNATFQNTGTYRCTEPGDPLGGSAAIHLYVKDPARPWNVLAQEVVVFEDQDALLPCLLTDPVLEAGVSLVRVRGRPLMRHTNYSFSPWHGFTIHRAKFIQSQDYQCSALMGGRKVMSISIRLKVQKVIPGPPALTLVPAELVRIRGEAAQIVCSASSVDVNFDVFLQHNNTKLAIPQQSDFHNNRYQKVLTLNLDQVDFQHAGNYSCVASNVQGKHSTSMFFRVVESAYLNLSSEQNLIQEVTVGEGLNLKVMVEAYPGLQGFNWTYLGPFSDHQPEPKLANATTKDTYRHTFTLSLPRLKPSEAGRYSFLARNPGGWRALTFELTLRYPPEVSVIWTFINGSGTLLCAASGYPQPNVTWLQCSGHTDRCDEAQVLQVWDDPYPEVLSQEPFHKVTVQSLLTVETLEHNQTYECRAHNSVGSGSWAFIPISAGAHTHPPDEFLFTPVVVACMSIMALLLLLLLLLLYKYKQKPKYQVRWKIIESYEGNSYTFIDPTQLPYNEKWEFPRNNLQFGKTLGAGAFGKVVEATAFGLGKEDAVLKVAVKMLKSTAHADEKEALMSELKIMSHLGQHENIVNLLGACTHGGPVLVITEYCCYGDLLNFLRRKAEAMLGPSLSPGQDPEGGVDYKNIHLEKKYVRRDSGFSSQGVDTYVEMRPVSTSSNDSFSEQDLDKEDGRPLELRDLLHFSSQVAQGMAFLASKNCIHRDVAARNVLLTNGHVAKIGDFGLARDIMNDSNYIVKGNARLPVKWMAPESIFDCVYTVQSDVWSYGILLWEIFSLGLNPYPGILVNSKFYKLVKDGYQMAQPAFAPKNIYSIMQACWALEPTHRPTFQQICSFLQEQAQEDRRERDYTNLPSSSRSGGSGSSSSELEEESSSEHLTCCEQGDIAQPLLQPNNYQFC
UniProt P10721, 26-976 limits assumed: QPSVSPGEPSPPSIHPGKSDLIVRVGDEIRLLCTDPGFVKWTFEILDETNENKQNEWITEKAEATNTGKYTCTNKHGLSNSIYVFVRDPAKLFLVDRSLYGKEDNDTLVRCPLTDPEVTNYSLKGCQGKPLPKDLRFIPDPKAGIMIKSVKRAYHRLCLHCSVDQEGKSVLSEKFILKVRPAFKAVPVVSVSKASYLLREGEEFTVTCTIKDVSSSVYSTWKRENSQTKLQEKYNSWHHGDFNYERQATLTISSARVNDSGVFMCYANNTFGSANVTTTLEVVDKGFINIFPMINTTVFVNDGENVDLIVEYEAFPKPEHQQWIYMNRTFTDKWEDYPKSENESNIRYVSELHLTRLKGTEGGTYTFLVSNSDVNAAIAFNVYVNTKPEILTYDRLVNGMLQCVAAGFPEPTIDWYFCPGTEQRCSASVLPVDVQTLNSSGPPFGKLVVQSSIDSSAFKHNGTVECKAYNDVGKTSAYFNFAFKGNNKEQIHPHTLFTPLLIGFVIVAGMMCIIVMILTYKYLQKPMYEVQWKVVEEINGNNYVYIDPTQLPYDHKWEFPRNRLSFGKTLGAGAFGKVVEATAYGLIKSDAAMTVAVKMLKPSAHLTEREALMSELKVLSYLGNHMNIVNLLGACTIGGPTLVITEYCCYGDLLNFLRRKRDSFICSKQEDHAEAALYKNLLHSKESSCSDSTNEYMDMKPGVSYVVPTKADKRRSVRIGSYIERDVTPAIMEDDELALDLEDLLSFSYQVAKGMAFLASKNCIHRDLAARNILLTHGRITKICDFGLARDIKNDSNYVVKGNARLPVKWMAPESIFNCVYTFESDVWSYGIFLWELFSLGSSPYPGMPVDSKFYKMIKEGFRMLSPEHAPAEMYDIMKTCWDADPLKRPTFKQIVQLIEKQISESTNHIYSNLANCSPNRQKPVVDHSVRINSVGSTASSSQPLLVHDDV

Assays:
PDGFRα = PDGFRα (Homo sapiens, UniProt P16234); experiment: Caliper biochemical assay, PDGFRα; settings: read-out: PDGFRα Biochemical Avg IC50, Table 6
CSF-1R = CSF-1R (Homo sapiens, UniProt P07333); experiment: Caliper biochemical assay, CSF-1R; settings: read-out: CSF-1R Biochemical IC50, Table 6
wtKIT [1] = biological target: T1, wtKIT (Homo sapiens, UniProt P10721); experiment: Caliper biochemical assay, wtKIT; settings: read-out: KIT Biochemical IC50 avg, Table 6
wtKIT [2] = biological target: T1, wtKIT; experiment: HTRF biochemical assay, wtKIT (phosphorylation of a peptide substrate); settings: read-out: KIT Biochemical IC50 avg, Table 4
Kinetic solubility assay = settings: 50 mM PB (pH 7.4), shaken 24 hours at RT

IC50 (PDGFRα) | IC50 (CSF-1R) | IC50 (wtKIT [1]) | IC50 (wtKIT [2]) | Structure (SMILES) | Solubility (μM) (Kinetic solubility assay)
500 to 5000 nM | 50 to 500 nM | < 50 nM | – | Cc1ccc(-c2noc([C@H]3C[C@H](F)CN3)n2)cc1NC(=O)c1cnc2ccccn12 | –
500 to 5000 nM | < 50 nM | < 50 nM | 50 to 500 nM | COC(=O)N1CC(c2nc(-c3ccc(C)c(NC(=O)c4cnc5cc(O[C@H]6CC[C@@H]6O)ccn45)c3)no2)C1 (relative stereo) | –
500 to 5000 nM | < 50 nM | 500 to 5000 nM | – | Cc1ccc(-c2noc(C(C)CO)n2)cc1NC(=O)c1cnc2ccccn12 (single isomer, unassigned) [I-170] | ** (a solubility greater than 10 μM and less than or equal to 50 μM)
5000 to 30000 nM | 50 to 500 nM | 50 to 500 nM | – | Cc1ccc(-c2noc([C@H]3C[C@@H](F)CN3)n2)cc1NC(=O)c1cnc2ccccn12 | * (a solubility greater than 50 μM)
500 to 5000 nM | 50 to 500 nM | < 50 nM | – | Cc1ccc(-c2noc([C@@H](C)NS(C)(=O)=O)n2)cc1NC(=O)c1cnc2ccccn12 | * (a solubility greater than 50 μM)
– | – | < 50 nM | 50 to 500 nM | COCCS(=O)(=O)N1CCC1c1nc(-c2ccc(C)c(NC(=O)c3cnc4ccccn34)c2)no1 (centres unmarked) | ** (a solubility greater than 10 μM and less than or equal to 50 μM)
50 to 500 nM | < 50 nM | < 50 nM | – | CCNc1ccn2c(C(=O)Nc3cc(-c4noc(CC)n4)ccc3C)cnc2c1 | **** (a solubility less than or equal to 2 μM)
500 to 5000 nM | 50 to 500 nM | < 50 nM | 50 to 500 nM | Cc1ccc(-c2noc(C3CCCN3S(C)(=O)=O)n2)cc1NC(=O)c1cnc2ccccn12 (centres unmarked) | **** (a solubility less than or equal to 2 μM)
< 50 nM | < 50 nM | < 50 nM | – | Cc1ccc(-c2noc(C3CC3F)n2)cc1NC(=O)c1cnc2ccc(C3COC3)cn12 (single isomer, unassigned) | **** (a solubility less than or equal to 2 μM)
– | – | < 50 nM | – | Cc1ccc(-c2noc([C@H]3C[C@@H]3F)n2)cc1NC(=O)c1cnc2cc(Nc3ccc(OC(F)F)cc3)ccn12 | ** (a solubility greater than 10 μM and less than or equal to 50 μM)
50 to 500 nM | < 50 nM | < 50 nM | – | Cc1ccc(-c2noc(C3=CC(C)(C)C3)n2)cc1NC(=O)c1cnc2ccccn12 | **** (a solubility less than or equal to 2 μM)
– | – | 50 to 500 nM | – | Cc1ccc(-c2noc([C@H]3CCN3C(=O)OC(C)(C)C)n2)cc1NC(=O)c1cnc2ccccn12 | ** (a solubility greater than 10 μM and less than or equal to 50 μM)
– | – | 50 to 500 nM | 50 to 500 nM | Cc1ccc(-c2noc(C3CCS(=O)(=O)N3)n2)cc1NC(=O)c1cnc2ccccn12 (single isomer, unassigned) [I-248] | *** (a solubility greater than 2 μM and less than or equal to 10 μM)
< 50 nM | < 50 nM | < 50 nM | – | Cc1ccc(-c2noc(C3CC3F)n2)cc1NC(=O)c1cnc2ccc(Nc3ccccc3)cn12 (centres unmarked) | **** (a solubility less than or equal to 2 μM)
500 to 5000 nM | 50 to 500 nM | < 50 nM | – | COC(=O)N1CC(c2nc(-c3ccc(C)c(NC(=O)c4cnc5ccc(OC(C)CO)cn45)c3)no2)C1 (single isomer, unassigned) [I-203] | **** (a solubility less than or equal to 2 μM)
– | – | < 50 nM | 50 to 500 nM | Cc1ccc(-c2noc([C@H]3CCN3)n2)cc1NC(=O)c1cnc2ccccn12 | * (a solubility greater than 50 μM)
– | – | < 50 nM | – | Cc1ccc(-c2noc(C34CCC(CC3(F)F)C4)n2)cc1NC(=O)c1cnc2ccccn12 (centres unmarked) | **** (a solubility less than or equal to 2 μM)
50 to 500 nM | < 50 nM | < 50 nM | – | CCNc1ccc2ncc(C(=O)Nc3cc(-c4noc(CC)n4)ccc3C)n2c1 | –
– | – | 50 to 500 nM | – | Cc1ccc(-c2noc(C34CCOC(C)(C3)C4)n2)cc1NC(=O)c1cnc2ccccn12 | **** (a solubility less than or equal to 2 μM)
500 to 5000 nM | 500 to 5000 nM | 50 to 500 nM | – | COC(=O)NC1CC(c2nc(-c3ccc(C)c(NC(=O)c4cnc5ccccn45)c3)no2)C1 (centres unmarked) | **** (a solubility less than or equal to 2 μM)
50 to 500 nM | 50 to 500 nM | < 50 nM | – | Cc1ccc(-c2noc(C3CC(C)(O)C3)n2)cc1NC(=O)c1cnc2ccccn12 (centres unmarked) | * (a solubility greater than 50 μM)

IC50 (PDGFRα) | IC50 (CSF-1R) | IC50 (wtKIT [1]) | IC50 (wtKIT [2]) | Structure (SMILES) | Solubility (μM) (Kinetic solubility assay)
50 to 500 nM | < 50 nM | < 50 nM | – | CCNc1ccc2ncc(C(=O)Nc3cc(-c4noc(C)n4)ccc3C)n2c1 | –
500 to 5000 nM | 500 to 5000 nM | 50 to 500 nM | – | Cc1ccc(-c2noc(CNS(C)(=O)=O)n2)cc1NC(=O)c1cnc2ccccn12 | ** (a solubility greater than 10 μM and less than or equal to 50 μM)
500 to 5000 nM | 50 to 500 nM | < 50 nM | – | CCCS(=O)(=O)N1CC(c2nc(-c3ccc(C)c(NC(=O)c4cnc5ccc(NCC)cn45)c3)no2)C1 | –
50 to 500 nM | < 50 nM | < 50 nM | – | O=C(Nc1cc(-c2noc([C@H]3CCN3)n2)ccc1Cl)c1cnc2ccccn12 | **** (a solubility less than or equal to 2 μM)
50 to 500 nM | < 50 nM | < 50 nM | – | Cc1ccc(-c2noc([C@H]3C[C@@H]3F)n2)cc1NC(=O)c1cnc2ccc(NS(=O)(=O)c3cccc4ccccc34)cn12 | **** (a solubility less than or equal to 2 μM)
< 50 nM | < 50 nM | < 50 nM | – | CNc1ccn2c(C(=O)Nc3cc(-c4noc([C@H]5C[C@@H]5F)n4)ccc3C)cnc2c1 | *** (a solubility greater than 2 μM and less than or equal to 10 μM)
< 50 nM | < 50 nM | < 50 nM | – | CCNc1ccn2c(C(=O)Nc3cc(-c4noc([C@H]5C[C@@H]5F)n4)ccc3C)cnc2c1 | *** (a solubility greater than 2 μM and less than or equal to 10 μM)
50 to 500 nM | < 50 nM | < 50 nM | – | COC12CCCCC(c3nc(-c4ccc(C)c(NC(=O)c5cnc6ccccn56)c4)no3)(C1)C2 | **** (a solubility less than or equal to 2 μM)
500 to 5000 nM | 500 to 5000 nM | < 50 nM | – | Cc1ccc(-c2noc(C(C)CO)n2)cc1NC(=O)c1cnc2ccccn12 (single isomer, unassigned) [I-171] | * (a solubility greater than 50 μM)
– | – | < 50 nM | – | Cc1ccc(-c2noc(C34CCC(C)(CC3)CC4)n2)cc1NC(=O)c1cnc2ccccn12 | **** (a solubility less than or equal to 2 μM)
– | – | < 50 nM | – | Cc1ccc(-c2noc(C34CC3CCC4(F)F)n2)cc1NC(=O)c1cnc2ccccn12 (centres unmarked) | **** (a solubility less than or equal to 2 μM)
50 to 500 nM | < 50 nM | < 50 nM | – | CCCS(=O)(=O)N1CC(c2nc(-c3ccc(C)c(NC(=O)c4cnc5cc(NCC)ccn45)c3)no2)C1 | **** (a solubility less than or equal to 2 μM)
5000 to 30000 nM | 50 to 500 nM | < 50 nM | – | Cc1ccc(-c2noc(C3CC3F)n2)cc1NC(=O)c1cnc2ccc(C(N)=O)cn12 (centres unmarked) | ** (a solubility greater than 10 μM and less than or equal to 50 μM)
– | – | < 50 nM | – | Cc1ccc(-c2noc([C@H]3C[C@@H]3F)n2)cc1NC(=O)c1cnc2cc(Nc3ccc4c(c3)CCC4)ccn12 | *** (a solubility greater than 2 μM and less than or equal to 10 μM)
50 to 500 nM | < 50 nM | < 50 nM | – | COC(=O)N1CC(c2nc(-c3ccc(C)c(NC(=O)c4cnc5ccc(OC(C)CO)cn45)c3)no2)C1 (single isomer, unassigned) [I-202] | *** (a solubility greater than 2 μM and less than or equal to 10 μM)
500 to 5000 nM | 50 to 500 nM | < 50 nM | – | Cc1ccc(-c2noc(C3CCO3)n2)cc1NC(=O)c1cnc2ccccn12 (centres unmarked) | ** (a solubility greater than 10 μM and less than or equal to 50 μM)
– | – | < 50 nM | – | CO[C@H]1C[C@@H](c2nc(-c3ccc(C)c(NC(=O)c4cnc5ccccn45)c3)no2)C12CCC2 (relative stereo) | ** (a solubility greater than 10 μM and less than or equal to 50 μM)
50 to 500 nM | < 50 nM | < 50 nM | – | Cc1cc(C)c(-c2noc(C3CC3F)n2)cc1NC(=O)c1cnc2ccccn12 (centres unmarked) | **** (a solubility less than or equal to 2 μM)
– | – | < 50 nM | 50 to 500 nM | Cc1ccc(-c2noc(C3CCS(=O)(=O)N3)n2)cc1NC(=O)c1cnc2ccccn12 (single isomer, unassigned) [I-249] | *** (a solubility greater than 2 μM and less than or equal to 10 μM)
50 to 500 nM | < 50 nM | < 50 nM | – | Cc1ccc(-c2noc(C34C5CC(CC53)C4(F)F)n2)cc1NC(=O)c1cnc2ccccn12 | **** (a solubility less than or equal to 2 μM)
< 50 nM | < 50 nM | < 50 nM | < 50 nM | Cc1ccc(-c2noc(C3CC3F)n2)cc1NC(=O)c1cnc2cc(N(C)C)ccn12 (centres unmarked) | **** (a solubility less than or equal to 2 μM)
